Experimental data: ChEMBL document CHEMBL6134857, “Novel Spiro-Barbiturates Can Reverse the Action of General Anesthetics on the GABAAR” (J Med Chem, 2025)

Biological target: T1, GABA-A receptor; alpha-1/beta-3/gamma-2 (Homo sapiens, UniProt P14867+P18507+P28472)
T1 sequence (P14867 whole entry): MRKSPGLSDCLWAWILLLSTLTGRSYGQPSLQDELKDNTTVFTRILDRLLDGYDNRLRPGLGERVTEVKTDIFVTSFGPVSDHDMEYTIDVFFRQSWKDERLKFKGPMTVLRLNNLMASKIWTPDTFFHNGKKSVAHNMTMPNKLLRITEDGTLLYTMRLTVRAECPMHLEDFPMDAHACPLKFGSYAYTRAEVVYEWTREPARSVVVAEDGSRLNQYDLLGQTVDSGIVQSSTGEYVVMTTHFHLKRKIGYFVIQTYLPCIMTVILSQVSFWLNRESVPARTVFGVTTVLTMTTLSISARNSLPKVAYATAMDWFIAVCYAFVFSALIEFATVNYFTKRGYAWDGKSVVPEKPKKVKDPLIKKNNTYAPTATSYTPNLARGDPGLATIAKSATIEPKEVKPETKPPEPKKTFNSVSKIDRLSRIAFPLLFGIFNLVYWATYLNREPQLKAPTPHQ
T1 sequence (P18507 whole entry): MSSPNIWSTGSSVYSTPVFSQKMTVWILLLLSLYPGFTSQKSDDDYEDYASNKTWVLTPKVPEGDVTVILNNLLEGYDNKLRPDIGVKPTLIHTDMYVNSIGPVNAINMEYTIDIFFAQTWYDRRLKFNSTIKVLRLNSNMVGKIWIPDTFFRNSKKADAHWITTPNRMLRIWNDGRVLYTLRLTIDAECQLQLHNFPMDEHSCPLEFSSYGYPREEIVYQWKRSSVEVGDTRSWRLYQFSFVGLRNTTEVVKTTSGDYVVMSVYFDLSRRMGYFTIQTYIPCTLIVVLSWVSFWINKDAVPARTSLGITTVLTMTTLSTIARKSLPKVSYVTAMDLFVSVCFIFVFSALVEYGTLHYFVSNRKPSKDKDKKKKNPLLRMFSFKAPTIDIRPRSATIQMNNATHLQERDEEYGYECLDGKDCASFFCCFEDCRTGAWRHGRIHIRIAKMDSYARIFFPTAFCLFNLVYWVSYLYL
T1 sequence (P28472 whole entry): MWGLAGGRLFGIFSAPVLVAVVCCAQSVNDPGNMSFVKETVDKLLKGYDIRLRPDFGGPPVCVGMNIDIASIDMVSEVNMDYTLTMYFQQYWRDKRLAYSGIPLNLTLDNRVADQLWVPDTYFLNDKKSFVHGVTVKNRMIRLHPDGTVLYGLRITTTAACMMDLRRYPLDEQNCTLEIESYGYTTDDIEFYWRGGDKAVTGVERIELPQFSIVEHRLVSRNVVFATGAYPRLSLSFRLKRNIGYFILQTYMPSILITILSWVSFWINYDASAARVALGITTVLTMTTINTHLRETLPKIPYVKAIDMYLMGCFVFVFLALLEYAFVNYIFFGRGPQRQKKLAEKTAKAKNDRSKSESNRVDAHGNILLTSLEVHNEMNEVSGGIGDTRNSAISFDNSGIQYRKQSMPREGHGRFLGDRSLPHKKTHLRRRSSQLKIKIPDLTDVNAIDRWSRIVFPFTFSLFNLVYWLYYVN
Assay: Positive allosteric modulation of [3H]muscimol binding to full length human N-terminal flag-tagged alpha1-beta3-C-terminal 1D4-tagged gamma2 GABAA receptor extracted from Tetracycline-resistant HEK293 cell membrane
Type: cell membranes

C=CC[C@@]1(c2cccc(C3(C(F)(F)F)N=N3)c2)C(=O)NC(=O)N(C)C1=O
EC50: 1300 nM
